We go through 1 substance from US5496810A, “Pyrimidine deoxyribonucleoside potentiation of combination therapy based on 5-fluorouracil and interferon” (Montefiore Medical Center, priority 1994, dated 1996).

The subject of series [1] is HT-29 human carcinoma cells. As to conditions: for Cloning Efficiency (% of control): 72 hours. How it is done: HT-29 human carcinoma cells (ATCC No. HTB-38) were maintained in RPMI 1640 with 10%v/v fetal bovine serum (GIBCO) in a humidified, 5% CO2 atmosphere at 37° C. Cells were plated in 24 well plates (150 cells per well) in RPMI 1640 medium with 10% v/v dialyzed fetal bovine serum. […] The various agents were diluted in phosphate-buffered saline (PBS), and control wells received vehicle alone. After 72 hours, drug containing medium was removed and replaced with RPMI 1640 with 10%v/v fetal bovine serum. Cell colonies were allowed to grow for an additional 7-10 days, at which point they were stained and counted. […] Data are means of at least 3 determinations. The IC50 values for 5-fluorouracil were calculated graphically by determining the concentration of 5-fluorouracil that reduced cloning efficiency by 50% from the cloning efficiency value measured in the absence of 5-fluorouracil.

The conditions of series [2]: background statement; cited from earlier work.
The subject of series [3] is advanced colorectal cancer. As to conditions: treatment of advanced colorectal cancer; background statement; cited from earlier work.

Read-outs that look alike come from different tables or passages of the source.

Consider “Interferon-α: interferonα (RoferonA, Roche Labs) 500 u/ml”, for which the “Change (of 5-FU IC50)” value in series [1] was found to be 1.8. The “Cloning Efficiency (% of control)” value worked out at 95% in series [1] (5-FU 0, IFN 500 u/ml, 5-ETH or 5-PRO 150 μM); 97% in series [1] (5-FU 0.25 μM, alone (CONT) or with IFN 500 u/ml, 5-ETH or 5-PRO 150 μM); 83% in series [1] (5-FU 0.50 μM, alone (CONT) or with IFN 500 u/ml, 5-ETH or 5-PRO 150 μM); 56% in series [1] (5-FU 1.0 μM, alone (CONT) or with IFN 500 u/ml, 5-ETH or 5-PRO 150 μM); 18% in series [1] (5-FU 1.5 μM, alone (CONT) or with IFN 500 u/ml, 5-ETH or 5-PRO 150 μM); 8% in series [1] (5-FU 2.0 μM, alone (CONT) or with IFN 500 u/ml, 5-PRO 150 μM). Moreover, the “potentiation of the cytotoxicity of 5-fluorouracil in vitro” value in series [2] is listed as “potentiates the cytotoxicity of 5-fluorouracil in vitro”. Moreover, in series [3], the “in vivo efficacy of the combination with 5-fluorouracil” value is on record as “in vivo efficacy of this combination has been demonstrated”.
